Rows were chosen to be rich in hits. Some 3.7% of all compounds tested hit in one or more screens of this group.
ClpP mod – qHTS Assay for Activators of ClpP; ATP-dependent Clp protease proteolytic subunit (Bacillus subtilis (strain 168)), P80244; purified B. subtilis ClpP, FRET peptide cleavage, 20 min; Potency, µM (series often up to 57.5 µM); actives 1.9% (n = 340,000); active means well fitted falling curve with a large enough effect; inconclusive means small, poorly fitted or top-dose-only effect; inactive means no such curve, though single readings can be large or run the other way; further: the source files actives as falling curves though it sought activators and does not explain the sign; nearly all actives have a fitted effect of over 65% in size
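FRET quenching reversal measured ClpP activation: 10 microg/mL B. subtilis ClpP at pH 8 with the FRET-FV decapeptide, read at 430 nm after 320 nm excitation. The 20-min minus 0-min signal was scaled between DMSO/no-enzyme wells and ADEP (5.8 microM final).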
miR-21 FLuc – miR-21 reporter, rising signal. HeLa miR-21 FLuc reporter, luciferase, 48 h. Potency, µM (highest dose often 38.3 µM). 340,000 tested, under 10 active. AID 2288; active = well fitted rising curve with a large enough effect; inconclusive = small, poorly fitted or top-dose-only effect; inactive = no such curve, though single readings can be large or run the other way;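 further: miR-21 action dims this reporter so a rising signal means less miR-21 action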
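Compounds were titrated across several concentrations (up to approximately 40 uM) and incubated 48 hours with HeLa miR-21-FLuc reporter cells (miR-21 target sequence downstream of FLuc, endogenous miR-21). Readout was firefly luciferase luminescence after lytic detection reagent.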
Nrf2 inh – inhibitors of Nrf2 signaling; A549 ARE-Fluc reporter, luciferase luminescence, 18-24 h; Potency, µM (highest dose often 46 µM), hits mostly inhibitors; actives 2.1% (n = 360,000); AID 504444; further: nearly all actives have a fitted effect of over 60% in size
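Nrf2 function is reported as luminescence of an ARE-controlled luciferase in A549 cells. Compounds were tested at several concentrations, and a CellTiter-Fluor read on the same wells flagged cytotoxicity.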
IL-2 act – IL-2 activation; IL-2 activation reporter assay, cell-based qHTS; stimulated with anti-CD3/CD4/CD28 beads; in transgenic mouse T cells; actives 0.065% (n = 360,000); AID 652025; activation, % (series mostly up to about 46 µM); in the data active means activation above about 50%; inconclusive means mostly about 30% to 49%
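Unstimulated transgenic mouse T cells preincubated 60 min with compound, then stimulated with anti-CD3/anti-CD4-coated beads plus anti-CD28 for 18 h at 37 degrees C. IL-2 response read as EGFP and DsRed fluorescence by plate cytometry.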
Nrf2 ARE act – Nrf2 pathway activation; AREc32 ARE-luciferase reporter (MCF7-derived line), luminescence, 24 h; Potency, µM (top dose mostly 46.1 µM), actives largely listed as activators; actives 0.31% (n = 410,000); further: nearly all actives have a fitted effect of over 65% in size
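Reporter line AREc32 (ARE-Fluc), seeded overnight in OPTI-MEM with 5% FBS; compound pin-transferred, 24 hr at 37 deg C, 5% CO2; luminescent read-out.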
A549 tox – A549 cytotoxicity, counter-screen for Nrf2 inhibitors. A549 ARE-Fluc cells, CellTiter-Fluor viability, 18-24 h. Potency, µM (series often up to 46 µM), most hits filed as inhibitors. actives 0.16% (n = 390,000). AID 504648
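Cytotoxicity counterscreen: CellTiter-Fluor fluorescence was measured in A549 ARE_Fluc cells after 18-24 h of compound exposure in a concentration series. The subsequent BugLite luminescent read reports ARE-luciferase activity.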
Numbers stand for hits; . = inactive; ? = inconclusive; / = no result given. Unless noted, the call rests on the fitted dose curve; in most records, active means well fitted curve in the direction sought with a large enough effect; inconclusive means small, poorly fitted or top-dose-only effect, or another doubt; inactive means no such curve, though single readings can be large; an effect the other way counts as inactive or inconclusive.

Amino acid sequences for entries named in this document (tags omitted).
ATP-dependent Clp protease proteolytic subunit (Bacillus subtilis (strain 168)), P80244, UniProt P80244, whole entry, looked up: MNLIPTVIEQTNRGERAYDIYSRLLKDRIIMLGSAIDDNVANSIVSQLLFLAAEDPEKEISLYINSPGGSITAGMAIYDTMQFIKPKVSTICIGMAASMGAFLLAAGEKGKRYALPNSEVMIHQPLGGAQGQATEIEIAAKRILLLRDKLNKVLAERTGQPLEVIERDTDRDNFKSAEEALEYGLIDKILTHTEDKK

SMILES	ClpP mod	miR-21 FLuc	Nrf2 inh	IL-2 act	Nrf2 ARE act	A549 tox
CCCCCn1c(=O)[nH]c2cc(C(=O)Nc3ccc(OC)cc3)ccc2c1=O	?	.	.	.	.	.
CCCCCn1c(=O)[nH]c2cc(C(=O)NCCCN(CC)CC)ccc2c1=O	28µM	.	.	.	.	.
CCCCCn1c(=O)[nH]c2cc(C(=O)NCCN3CCOCC3)ccc2c1=O	28µM	/	.	.	.	.
COC(=O)c1ccc2c(=O)n(CCCCCC(=O)NCc3ccccn3)c(=O)[nH]c2c1	32µM	.	.	.	.	.
CCn1c(=O)[nH]c2cc(C(=O)Nc3cc(C)cc(C)c3)ccc2c1=O	/	.	16µM	.	.	.
CCOCCCn1c(=S)[nH]c2cc(C(=O)NCCN(CC)CC)ccc2c1=O	.	.	.	.	.	.
O=C(Cn1c(-c2cccs2)cc2ccccc21)NCCCN1CCN(c2ccc(F)cc2)CC1	32µM	.	.	/	.	?
COc1ccc(N2CCN(CCCNC(=O)Cn3c(-c4cccs4)cc4ccccc43)CC2)cc1	.	.	.	/	.	.
O=C(Cn1c(-c2cccs2)cc2cc(F)ccc21)NCCCN1CCN(c2ccccc2F)CC1	32µM	.	.	/	.	.
CC(C)CCNC(=O)Cn1c(-c2cccs2)cc2cc(F)ccc21	32µM	.	?	/	.	.
CCOc1ccc(NC(=O)Nc2cc3c(cc2N2CCCCC2)n(C)c(=O)n3C)cc1	?	.	.	/	.	?
CCN(CCCNC(=O)c1cc2cc3cc(C)ccc3nc2s1)c1cccc(C)c1	.	.	/	/	.	.
Cc1cccc(CS(=O)(=O)Cc2ccc(C(=O)NCCCN3CCOCC3)o2)c1	28µM	.	.	.	.	.
CN1CCN(CCCNC(=O)c2ccc(CSCc3cccc(Cl)c3)o2)CC1	14µM	.	.	.	.	.
CCOC(=O)CCN(c1ccccc1)S(=O)(=O)c1ccc2[nH]c(=O)ccc2c1	.	.	/	/	.	.
COc1cc(/C=C2\CC/C(=C\c3ccc(OCCO)c(OC)c3)C2=O)ccc1OCCO	/	.	.	163	?	.
O=C(C[n+]1csc2ccccc21)c1ccc(O)c(O)c1	.	/	/	/	/	/
CC(=O)c1ccc(NC(=O)CSc2nc(-c3ccccc3C)nc3c2c(=O)n(C)c(=O)n3C)cc1	.	.	/	/	.	.
CCOC(=O)c1oc2nc(C)c3c(c2c1N)CC(C)(C)OC3	10µM	.	.	.	.	.
COC(=O)c1sc2nc(N3CCCCC3)c3c(c2c1N)CCCC3	10µM	.	.	.	.	.
CCN(CC)C(=O)c1sc2nc(N3CCOCC3)c3c(c2c1N)CCCC3	25µM	.	?	.	.	.
CCOC(=O)c1sc2nc(N3CCOCC3)c3c(c2c1N)CCCC3	32µM	.	.	.	.	.
O=[S+]([O-])(c1ccc(N2CCOCC2)nc1)N1CCN([S+](=O)([O-])c2c(F)cccc2F)CC1	/	/	.	/	/	.
O=C(COCc1cc(-c2ccc3c(c2)OCO3)on1)NCc1ccccc1Cl	.	.	?	/	.	.
CCOC(=O)c1sc2nc(C(C)C)c3c(c2c1N)CC(C)(C)OC3	?	.	.	.	.	.
SMILES	ClpP mod	miR-21 FLuc	Nrf2 inh	IL-2 act	Nrf2 ARE act	A549 tox
CCOC(=O)c1sc2nc(N3CCCC3)c3c(c2c1N)CC(C)(C)OC3	32µM	.	.	.	.	.
COc1ccc2c(c1)c1c(c(=O)n(-c3cccc(C)c3)c(=O)n1CC(=O)Nc1c(C)cc(C)cc1C)n2C	.	.	?	/	.	.
CNC(=O)c1ccc(Nc2nc(-c3ccccc3)nc3ccccc23)cc1	/	.	23µM	.	.	.
O=C(O)c1ccc(Nc2nc(-c3ccccc3)nc3ccccc23)cc1	.	.	?	.	.	.
O=C(c1cccc(Cl)c1)N1c2ncnn2C2(CCCCC2)[C@@H]2CCCC[C@@H]21	.	.	.	/	.	.
O=C1CCc2cc(S(=O)(=O)Nc3ccc(Cl)cc3)ccc2N1	/	/	?	/	/	.
Cc1ccc(S(=O)(=O)Nc2ccc3c(c2)CCCN3C(=O)c2cccs2)cc1	.	.	/	/	.	.
Cc1ccc(OCC(=O)Nc2cc(S(=O)(=O)N3CCOCC3)ccc2N2CCCC2)cc1	.	/	.	.	.	.
Cc1cc(OCC(=O)Nc2cc(S(=O)(=O)N3CCOCC3)ccc2N2CCCC2)ccc1C(C)C	.	/	16µM	.	.	.
Cc1ccc(S(=O)(=O)N2CCOCC2)cc1NC(=O)COc1ccc2c(C)cc(=O)oc2c1	32µM	.	?	.	.	.
CCn1nc(NC(=O)c2ccccn2)c2cc3cccc(C)c3nc21	32µM	.	?	.	.	.
CCn1nc(NC(=O)c2ccncc2)c2cc3cccc(C)c3nc21	.	.	.	.	.	.
CCN(C(=O)c1cc2c(s1)-c1c(C)cccc1OC2)c1ccccc1F	.	.	.	/	.	.
Cc1ccc(CNC(=O)c2ccc(Cn3c(=O)c4ccccc4n(CC(=O)Nc4ccc(C)cc4)c3=O)cc2)cc1	.	.	.	/	.	.
Cc1ccc(Cl)cc1NC(=O)Cn1c(=O)n(Cc2ccc(C(=O)NCc3ccc4c(c3)OCO4)cc2)c(=O)c2ccccc21	11µM	.	.	/	.	.
Cc1ccc(NC(=O)Cn2c(=O)n(Cc3ccc4c(c3)OCO4)c(=O)c3ccccc32)cc1	.	.	.	/	.	.
Cc1ccc(NC(=O)Cn2c(=O)n(Cc3ccc(C(=O)NCc4ccc5c(c4)OCO5)cc3)c(=O)c3ccccc32)cc1	22µM	.	.	/	.	.
CCOc1ccc(NC(=O)Cn2c(=O)n(Cc3ccc(C(=O)NCc4ccc(C)cc4)cc3)c(=O)c3ccccc32)cc1	.	.	18µM	/	.	.
O=C1C=CC(=O)N1Cc1ccccc1	.	?	16µM	.	.	?
COc1ccc2oc3cc(C)[n+]([O-])c(-c4ccc(C)cc4)c3c2c1	?	.	26µM	.	.	?
Cc1c(P(=S)(c2ccccc2)c2ccccc2)c2ccccc2n1CCc1ccccc1	/	/	.	/	/	.
CCCCCCNC(=O)CNC(=S)N(Cc1cccs1)C1CCCCC1	.	.	16µM	.	.	?
CCOC(=O)CNC(=S)N(Cc1cccs1)C1CCCC1	.	.	.	.	.	.
CC[C@H](C)[C@H]1O[C@]2(CC[C@@H]1C)C[C@@H]1C[C@@H](CC=C(C)[C@@H](O[C@H]3C[C@H](OC)[C@@H](O[C@H]4C[C@H](OC)[C@@H](O)[C@H](C)O4)[C@H](C)O3)[C@@H](C)C=CC=C3CO[C@@H]4[C@H](O)C(C)=C[C@@H](C(=O)O1)[C@]34O)O2	.	/	5.8µM	.	.	23µM

Source: PubChem BioAssay
